# Antibody variant affinities, Ab-14 light chain, assay B

From the AlphaSeq antibody data of Li et al. 2023 (doi:10.1038/s41467-023-39022-2), copy in the FLAb collection.

Target: peptide PDVDLGDISGINAS, taken from heptad repeat 2 (HR2) of SARS-CoV-2 spike.

Parent: Ab-14, a human scFv built as VH, the linker GGGGSGGGGSGGGGS, VL. Only the CDRs of the light chain vary.
VH: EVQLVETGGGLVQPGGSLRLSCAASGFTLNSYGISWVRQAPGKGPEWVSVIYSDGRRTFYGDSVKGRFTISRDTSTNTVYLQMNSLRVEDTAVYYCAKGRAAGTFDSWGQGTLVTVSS
VL: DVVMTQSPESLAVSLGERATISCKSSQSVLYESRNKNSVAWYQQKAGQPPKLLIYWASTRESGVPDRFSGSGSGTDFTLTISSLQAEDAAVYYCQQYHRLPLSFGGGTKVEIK

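This is the validation round: designs drawn from the data on random variants, tested in the same kind of assay. Their group label is 14L_GP_Gen (GP: Gaussian process model; Gen: genetic algorithm; a sequence that several methods proposed may carry one label only). In AlphaSeq, yeast of one mating type display the scFv and yeast of the other type display the target. The frequency of each diploid, read from paired DNA barcodes, reflects how well the two displayed proteins bind. A regression on co-assayed BCL2-family reference pairs converts the normalised counts of each replicate to an apparent Kd. The assay was run in six technical replicates.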

Each variant is given by its three light chain CDRs, as the data file delimits them; those of the parent are KSSQSVLYESRNKNSVA, WASTRES, QQYHRLPLS. Values are log10 of the apparent Kd in nM; lower means stronger binding. A mean of the replicates is given; it leaves out those without a signal. The authors' rule: three or more of the six replicates give a measured affinity, fewer mean a poor binder.

CDR-L1 | CDR-L2 | CDR-L3 | log10 Kd (nM) by replicate | log10 Kd (nM), mean | signal with controls
KVSQSVLYESRNKNSVA | EASTRES | QQYHRLPLW | 0.28 / -0.20 / -0.24 / -0.01 / -0.04 / -0.02 | -0.04 | 0 of 18
KLSQSNLYESRNKNSVA | NASTRES | QQYHRLPLM | 0.62 / 0.61 / 0.21 / 0.20 / 0.60 / 0.40 | 0.44 | 0 of 18
KLSQSELYESRNKNSVA | NASTREV | QQYHRLPLS | 0.13 / 0.31 / 0.07 / -0.36 / -0.19 / 0.16 | 0.02 | 0 of 18
KVSQSVLYESRNKNSVA | NASYRES | QQYHRLPLS | 0.13 / 0.06 / 0.09 / -0.08 / 0.15 / 0.16 | 0.09 | 0 of 18
KLPQSQLYESRNKNSVA | QASTRLS | QQYHRLPLS | 0.15 / 0.00 / 0.04 / 0.12 / -0.02 / 0.08 | 0.06 | 2 of 18 (2.81)
KLEQSEQYESRNKNSVA | NASTRES | QQYHRLPLS | 0.64 / 0.74 / 0.57 / 0.13 / 1.04 / 0.26 | 0.56 | 0 of 18
KLEQSVLYESRNKNSVA | NASTREV | QQYHRLPLS | -0.36 / -0.41 / -0.44 / -0.33 / -0.41 / -0.06 | -0.34 | 0 of 18
KVSQSVLYEDRNKNSVA | NASTRLS | QQYHRLPLS | -0.08 / -0.16 / -0.22 / -0.27 / -0.25 / -0.10 | -0.18 | 4 of 18 (3.02)
KLYQSELYESRNKNSVA | EASQRES | QQYHRLPLS | -0.40 / -0.18 / -0.46 / -0.65 / -0.62 / -0.14 | -0.41 | 1 of 18 (2.03)
KVSQSWLYESRNKNNVA | EASTRES | QQYHRLPLS | 0.97 / 0.40 / -0.07 / 0.16 / 0.12 / 0.76 | 0.39 | 0 of 18
KVEQSVLYESRNKNSVA | NASTRMS | QQYHRLPLS | 0.17 / 0.02 / -0.04 / -0.02 / -0.07 / 0.12 | 0.03 | 0 of 18
KLSQSDLGESRNKNSVA | HASTRES | QQYHRLPLS | 0.08 / -0.22 / -0.02 / -0.35 / -0.18 / -0.09 | -0.13 | 0 of 18
KLQQSELYESRNKNSVA | SASTRSS | QQYHRLPLS | 0.82 / 0.30 / 0.17 / 0.67 / 0.61 / 0.70 | 0.54 | 0 of 18
KLSQSHLYESRNKNSVA | QASTRLS | QQYHRLPLS | 0.33 / 0.16 / 0.28 / 0.16 / 0.26 / 0.37 | 0.26 | 5 of 18 (2.69)
KLSQSHLYESRNKNSVA | EASTRLS | QQYHRLPLS | 0.37 / 0.41 / 0.04 / 0.13 / 0.15 / 0.50 | 0.27 | 1 of 18 (3.15)
KLQMSQLYESRNKNSVA | NASTRES | QQYHRLPLS | 0.32 / 0.15 / 0.10 / 0.12 / 0.36 / 0.66 | 0.29 | 1 of 18 (2.28)
KLQQSSLYESRNKNSVA | NASTRES | QQYHRLPLS | -0.46 / -0.21 / -0.15 / -0.46 / -0.47 / -0.43 | -0.36 | 0 of 18
KLSQSMEYESRNKNSVA | NASTRMS | QQYHRLPLS | 0.56 / -0.01 / 0.00 / 0.14 / -0.11 / 0.18 | 0.13 | 1 of 18 (2.41)
KLSQSTLYESRNKNSVA | DASQRES | QQYHRLPLS | 0.17 / 0.10 / -0.30 / -0.31 / -0.07 / 0.70 | 0.05 | 0 of 18
KLQQSHLYESRNKNSVA | NASTREV | QQYHRLPLS | 0.65 / 0.80 / 0.30 / 0.59 / 0.48 / 0.72 | 0.59 | 1 of 18 (2.83)
KVSQSVLYESRNKNSVA | NASTRES | QQYHRLPLM | -0.24 / -0.38 / -0.33 / -0.59 / -0.52 / -0.29 | -0.39 | 2 of 18 (2.61)
KLQQSELYESRNKNSVA | NASQRES | QQYHRLPLS | 0.02 / -0.21 / -0.48 / -0.34 / -0.39 / -0.50 | -0.32 | 1 of 18 (1.61)
KLSMSVLYESRNKNSVA | NASTRES | QQYHRLPLS | -0.26 / -0.21 / -0.23 / -0.29 / -0.43 / -0.58 | -0.33 | 0 of 18
KLSQSVEYESRNKNSVA | NASTRES | QQYHRLPLS | 0.04 / 0.19 / 0.11 / -0.34 / 0.26 / 0.12 | 0.06 | 1 of 18 (3.05)
KLQQSVLYESRNPNSVA | NASTRMS | QQYHRLPLS | 0.19 / -0.11 / -0.18 / 0.03 / -0.17 / 0.10 | -0.02 | 1 of 18 (2.41)
KLSQSVLYESRMKNNVA | NASTRES | QQYHRLPLS | -0.18 / -0.14 / -0.25 / -0.29 / -0.40 / -0.29 | -0.26 | 0 of 18
KVSQSVLYEQRNKNSVA | EASQRES | QQYHRLPLS | 0.33 / -0.28 / -0.16 / -0.27 / -0.10 / -0.06 | -0.09 | 1 of 18 (2.23)
KFSQSELYESRNKNSVA | NASQREQ | QQYHRLPLS | 0.10 / -0.13 / -0.11 / -0.28 / -0.24 / -0.02 | -0.11 | 1 of 18 (3.50)
KLSQSHLYESRNKNNVA | EASTRES | QQYHRLPLS | -0.38 / -0.34 / -0.51 / -0.67 / -0.67 / -0.53 | -0.52 | 0 of 18
KSEQSELYESRNKNSVA | NASTRES | QQYHRLPLS | -0.17 / -0.09 / -0.37 / -0.38 / -0.33 / -0.05 | -0.23 | 0 of 18
KLSQSVLYESRNKNSVA | EAGTRES | QQYHRLPLS | -0.31 / -0.29 / -0.34 / -0.38 / -0.44 / -0.13 | -0.32 | 0 of 18
KLPQSEGYESRNKNSVA | NASTRES | QQYHRLPLS | 0.05 / 0.05 / -0.10 / -0.28 / -0.16 / 0.18 | -0.05 | 0 of 18
KLSQSVLYESRNKNNVA | DASTRES | QDYHRLPLS | -0.23 / -0.32 / -0.31 / -0.44 / -0.42 / -0.25 | -0.33 | 1 of 18 (2.43)
KWSQSVLYESRNKNSVA | EASTRES | QQYHRLPLS | 1.30 / 1.02 / 1.00 / 0.87 / 0.81 / 1.44 | 1.07 | 0 of 18
KVSQSHLYESRNSNSVA | NASTRES | QQYHRLPLS | -0.05 / -0.12 / -0.21 / -0.38 / -0.29 / 0.04 | -0.17 | 0 of 18
KVSQSVLYESRNKQSVA | EASTRES | QQYHRLPLS | 0.08 / -0.32 / -0.29 / -0.48 / -0.31 / -0.19 | -0.25 | 1 of 18 (2.75)
KLSQSVLYESRNKNSVA | NGSTRED | QQYHRLPLS | -0.32 / -0.42 / -0.60 / -0.53 / -0.48 / -0.43 | -0.46 | 3 of 18 (2.65)
KLSQSWLYESRNKNAVA | EASQRES | QQYHRLPLS | 0.15 / 0.31 / 0.13 / -0.23 / 0.17 / 0.38 | 0.15 | 1 of 18 (4.42)
KLPQSMLYESRNKNSVA | NASTRMS | QQYHRLPLS | -0.02 / -0.25 / -0.35 / -0.39 / -0.33 / 0.03 | -0.22 | 2 of 18 (3.05)
KVSPSVLYQSRNKNSVA | EASTRES | QQYHRLPLS | -0.34 / -0.33 / -0.36 / -0.43 / -0.46 / -0.31 | -0.37 | 1 of 18 (3.47)
KLSQSVLGESRNKNSVA | NASTREQ | QQYHRLPLS | -0.14 / 0.10 / -0.43 / -0.18 / -0.12 / 0.00 | -0.13 | 0 of 18
KFSQSVLYESRNKNSVA | DASTRLS | QQYHRLPLS | -0.14 / -0.33 / -0.37 / -0.36 / -0.55 / -0.34 | -0.35 | 0 of 18
KLQQSEGYESRNKNSVA | NASQRES | QQYHRLPLS | 0.02 / 0.14 / -0.02 / -0.16 / 0.01 / 0.15 | 0.02 | 3 of 18 (2.53)

For reference, 5 entries of the list once more:

CDR-L1,CDR-L2,CDR-L3,log10 Kd (nM) by replicate,"log10 Kd (nM), mean",signal with controls
KVSQSHLYESRNSNSVA,NASTRES,QQYHRLPLS,-0.05 / -0.12 / -0.21 / -0.38 / -0.29 / 0.04,-0.17,0 of 18
KLSQSNLYESRNKNSVA,NASTRES,QQYHRLPLM,0.62 / 0.61 / 0.21 / 0.20 / 0.60 / 0.40,0.44,0 of 18
KSEQSELYESRNKNSVA,NASTRES,QQYHRLPLS,-0.17 / -0.09 / -0.37 / -0.38 / -0.33 / -0.05,-0.23,0 of 18
KLSQSMEYESRNKNSVA,NASTRMS,QQYHRLPLS,0.56 / -0.01 / 0.00 / 0.14 / -0.11 / 0.18,0.13,1 of 18 (2.41)
KLEQSVLYESRNKNSVA,NASTREV,QQYHRLPLS,-0.36 / -0.41 / -0.44 / -0.33 / -0.41 / -0.06,-0.34,0 of 18

The range of this assay differs from that of the first round, and the authors advise against merging the two. Of ten entries with the parent sequence, four were seen in most replicates (averages 0.34 to 2.37), three in one and three in none, so single entries are noisy. Three control strains display no target. For all light chain designs, 4% of the pairings with them gave a signal, with a median of 2.64 and one signal in twenty below 1.59, so weak values seen in few replicates may be background. For each scFv, signals with the empty controls are counted beside the result, with their mean in brackets.